# Antibody variant affinities, Ab-14 heavy chain, assay 1

From the AlphaSeq antibody data of Engelhart et al. 2022 (doi:10.1038/s41597-022-01779-4), copy in the FLAb collection.

Antigen: PDVDLGDISGINAS, a 14-residue peptide of the SARS-CoV-2 spike HR2 region.

Parent: Ab-14, a human scFv built as VH, a 15-residue (Gly4Ser)3 linker, VL. Only the CDRs of the heavy chain vary.
VH: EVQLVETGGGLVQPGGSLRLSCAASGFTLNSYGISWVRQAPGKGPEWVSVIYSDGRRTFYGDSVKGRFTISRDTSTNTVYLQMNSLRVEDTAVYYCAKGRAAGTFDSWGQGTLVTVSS
VL: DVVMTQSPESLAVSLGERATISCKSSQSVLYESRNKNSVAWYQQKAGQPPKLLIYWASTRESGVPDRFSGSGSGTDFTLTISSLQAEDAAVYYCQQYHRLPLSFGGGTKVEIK

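The starting antibody came from a phage panning campaign against this peptide. Library AAYL49 holds single substitutions and randomly drawn double and triple substitutions in the CDRs. The assay is AlphaSeq: two haploid yeast populations carry antibody and antigen on their surface. Mating (16 h, 30 °C) was followed by selection of diploids and sequencing of their barcodes. Scores were corrected for input abundance and mapped to Kd with protein pairs of known affinity run in the same pool. The assay was run in three technical replicates.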

Variants are written as CDR1, CDR2 and CDR3 of the heavy chain (limits as in the source). Parent: GFTLNSYGIS, VIYSDGRRTFYGDSVK, GRAAGTFDS. Values are apparent Kd, the geometric mean of the replicates that gave a signal; lower means stronger binding. Where no diploid with the target was found in any replicate, the entry reads "nd": below detection, most likely a poor binder, though not proof of it. Empty control strains, which show no peptide, gave a signal in 15% of pairings with library AAYL49; the median was 11 µM and 95% of these signals were weaker than 680 nM. No background was subtracted. The control count says in how many pairings with the empty strains this scFv gave a signal.

Kd | replicates with signal | signal with controls | CDR-H1 | CDR-H2 | CDR-H3
nd | 0/3 | 2/9 | IFTLNSYGIS | VIYSDGRRTFYGDSVK | GRAAGTFDG
nd | 0/3 | 3/9 | GFTLNSYIIS | TIYSDGRRTFPGDSVK | GRAAGTFDS
nd | 0/3 | 0/9 | GFTLCSYGIS | VIYSDYRRTFYGQSVK | GRAAGTFDS
nd | 0/3 | 0/9 | GFWLNSYGIS | VIYSDGRRTFYGDSVK | GRVAGTHDS
3.5 µM | 3/3 | 2/9 | GFTLNSYGIS | VIYSDGRRTFYGDSVH | GIAAGTFDS
1.5 µM | 2/3 | 2/9 | GFTLNSYGIK | VIYSDLRRTFYGRSVK | GRAAGTFDS
140 nM | 3/3 | 3/9 | GFTLNSIGIS | VIYSDGRRTAYGDSVM | GRAAGTFDS
nd | 0/3 | 1/9 | GFTLNSYGMS | VIYSDGRRTFSGDSVK | GRWAGTFDS
700 nM | 1/3 | 2/9 | SFTLNSYGYS | VIYSDGRRTFYGDSVK | GRAAGTKDS
nd | 0/3 | 0/9 | GFTLNSYGIS | VIDSDGVRTNYGDSVK | GRAAGTFDS
480 µM | 1/3 | 1/9 | GFTLNSYGIS | VIYSDGRRTLYGDSVS | GRAAGTFPS
nd | 0/3 | 1/9 | GFTLNSEIIS | VFYSDGRRTFYGDSVK | GRAAGTFDS
11 µM | 1/3 | 3/9 | GKTLNSYGHS | VIYSDGRRTFYGDSVK | GYAAGTFDS
370 µM | 3/3 | 3/9 | GFTLNDYGIS | VIYSDGRRTFYGDRVK | GRAAGLFDS
nd | 0/3 | 0/9 | GFTLNSQGIL | VIYSDGRRTFYGDSVK | GRVAGTFDS
2.5 µM | 1/3 | 0/9 | GFTLESYDIS | VIYSDGRRLFYGDSVK | GRAAGTFDS
nd | 0/3 | 1/9 | GFTLNSYGIS | CIYSDGRMTFYGISVK | GRAAGTFDS
nd | 0/3 | 2/9 | GFTLNSYGIS | VIISDGRRTIYGDSVK | GRHAGTFDS
88 µM | 1/3 | 1/9 | GFTLNSYKRS | VIYSDGRRRFYGDSVK | GRAAGTFDS
380 nM | 3/3 | 1/9 | GFTLYSYGIS | VIYSDGRRTFYGDSVK | GRGAGTFDS
43 µM | 1/3 | 5/9 | GFTLNSYGIS | VIYSDGRRTFMGDSVK | GRASVTFDS
nd | 0/3 | 3/9 | GFTLNSYGKS | VIYSDGRRTSYGDSVK | GRMAGTFDS
2.2 µM | 2/3 | 4/9 | GFWLNSYGRS | VIYSDGRRTFYGDSVK | NRAAGTFDS
nd | 0/3 | 2/9 | GFTLNWMGIS | VIYSDCRRTFYGDSVK | GRAAGTFDS
nd | 0/3 | 0/9 | GFTLNSYGNS | VIYSDGRDTFYGDSVL | GRAAGTFDS
nd | 0/3 | 0/9 | GFTLLSHGIS | VIYSDGRRTFYGDSVK | GRYAGTFDS
4.9 µM | 1/3 | 0/9 | GFTLNSYGIY | VTYSDGRSTFYGDSVK | GRAAGTFDS
78 µM | 1/3 | 4/9 | TFTLNSYGIS | AIYSDGRRTFYGDSVK | GRAAGTMDS
nd | 0/3 | 0/9 | GFTLNSSGHS | VIYSDGRRTFYGDSVH | GRAAGTFDS
1.6 µM | 3/3 | 0/9 | FFTLNSYGIS | VIYSDGIRTFYGDSVK | GRAAITFDS
nd | 0/3 | 0/9 | GFTLGMYGIS | VIYSDGRRTFYHDSVK | GRAAGTFDS
nd | 0/3 | 0/9 | GFTLWSYGIE | VIYSDGRRTFYGDSVK | GRAAGTADS
110 µM | 2/3 | 5/9 | GFTLNGVGIS | VAYSDGRRTFYGDSVK | GRAAGTFDS
28 nM | 3/3 | 1/9 | GFTLNSYGIS | VIYSDGRRTFYGDMVK | GRQAGSFDS
15 µM | 1/3 | 4/9 | GFTLNSYPIS | VRYSQGRRTFYGDSVK | GRAAGTFDS
12 µM | 1/3 | 2/9 | GFTLNSYGIS | VIYSDGRRTFPGDSDK | GRAAGTFDP
nd | 0/3 | 0/9 | GFTLNSYGWS | VYYSDGRRTFYGDSVK | GKAAGTFDS
nd | 0/3 | 2/9 | GFTLPSYGPS | VIYTDGRRTFYGDSVK | GRAAGTFDS
22 µM | 2/3 | 4/9 | GFTLNSSGIS | VIYSDGRRTFYGDSAK | GRAAGTFDC
nd | 0/3 | 0/9 | GFTLNSYNIS | VIYSDGRRTFYGTSDK | GRAAGTFDS
nd | 0/3 | 0/9 | GDTKNSRGIS | VIYSDGRRTFYGDSVK | GRAAGTFDS
nd | 0/3 | 2/9 | GFLLNSGGIS | VIYSDGRRTFYGDSIK | GRAAGTFDS
560 nM | 3/3 | 0/9 | GFTLNSCGIS | VIYSDGRRTAYGLSVK | GRAAGTFDS
nd | 0/3 | 0/9 | GFTLNSYGIS | VGYSTGRRTFYGDSVK | GRAAGTFDS
nd | 0/3 | 2/9 | GFTLNDYGIS | VIYSDGRRTFYGMSVK | GRARGTFDS
35 µM | 1/3 | 0/9 | GCTLNSYGIS | VIYSDGRRTFYGDSVK | FRAAGFFDS
190 nM | 1/3 | 0/9 | GFTLNSRGIH | VIYNDGRRTFYGDSVK | GRAAGTFDS
31 µM | 2/3 | 1/9 | WFTLNSYGWS | VIYSDGRRTFYGDSVK | GRAAGDFDS
nd | 0/3 | 1/9 | GFTLNSYGIS | VIYFDQRRTFYGGSVK | GRAAGTFDS
960 nM | 1/3 | 1/9 | GFTLNSYPIS | VIYSDGRRTFYGDSPI | GRAAGTFDS
150 µM | 2/3 | 4/9 | GFTLNSGGIS | HIYSDGRRTFYGDSVC | GRAAGTFDS
26 µM | 1/3 | 1/9 | GFTLNSYGRS | VIYSDGRRTFFDDSVK | GRAAGTFDS
13 µM | 1/3 | 3/9 | GFTLNNYGIS | VIYSDGRRTFYGDMVP | GRAAGTFDS
nd | 0/3 | 0/9 | AFTLNSYGIS | VIYSDGRRTFAGDSVK | GRAAGTFDG
nd | 0/3 | 0/9 | GFTLNSYCIS | VIRSDGRRTFYGDSVK | GRARGTFDS
42 µM | 2/3 | 4/9 | GFTLNSGGIS | VIYSDGMRTFYCDSVK | GRAAGTFDS
nd | 0/3 | 4/9 | GFTLNLYGIS | VIYSDGRRTFYGWSVY | GRAAGTFDS
nd | 0/3 | 3/9 | GFTLNSYGIS | DIYSDGIRTFYGDSVK | GRAAGTFDS
580 nM | 1/3 | 1/9 | GFTLNSYGIS | VIYSDGRRTFYGDSVK | GRLAGTFNW

Picked from the list: the 7 lowest averages where every replicate gave a value.

| CDR-H1 | CDR-H2 | CDR-H3 | Kd | replicates with signal | signal with controls |
|---|---|---|---|---|---|
| GFTLNSYGIS | VIYSDGRRTFYGDMVK | GRQAGSFDS | 28 nM | 3/3 | 1/9 |
| GFTLNSIGIS | VIYSDGRRTAYGDSVM | GRAAGTFDS | 140 nM | 3/3 | 3/9 |
| GFTLYSYGIS | VIYSDGRRTFYGDSVK | GRGAGTFDS | 380 nM | 3/3 | 1/9 |
| GFTLNSCGIS | VIYSDGRRTAYGLSVK | GRAAGTFDS | 560 nM | 3/3 | 0/9 |
| FFTLNSYGIS | VIYSDGIRTFYGDSVK | GRAAITFDS | 1.6 µM | 3/3 | 0/9 |
| GFTLNSYGIS | VIYSDGRRTFYGDSVH | GIAAGTFDS | 3.5 µM | 3/3 | 2/9 |
| GFTLNDYGIS | VIYSDGRRTFYGDRVK | GRAAGLFDS | 370 µM | 3/3 | 3/9 |